## Ab-14 light chain CDR variants: yeast mating affinities

Source: Li et al. 2023 (doi:10.1038/s41467-023-39022-2), MIT Lincoln Laboratory and A-Alpha Bio; data file from the FLAb repository.

Target peptide (SARS-CoV-2 spike, HR2 region): PDVDLGDISGINAS

Parent: Ab-14, a human scFv built as VH, three GGGGS repeats, VL. Only the CDRs of the light chain vary.
VH: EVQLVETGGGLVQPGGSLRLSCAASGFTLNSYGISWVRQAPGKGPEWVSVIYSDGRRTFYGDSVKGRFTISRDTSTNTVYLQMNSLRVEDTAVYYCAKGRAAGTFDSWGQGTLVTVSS
VL: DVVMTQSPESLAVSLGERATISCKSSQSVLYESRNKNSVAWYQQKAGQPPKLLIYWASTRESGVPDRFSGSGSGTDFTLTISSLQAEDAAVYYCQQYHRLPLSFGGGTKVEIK

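The parent was found by panning a naive human phage display library on the peptide. The variants were designed computationally from a first round of random CDR variants and then made and measured. Group labels follow the data file (Ctrl: baseline library sampled from a position-specific scoring matrix, with some repeated check sequences; En: ensemble of fine-tuned language models; GP: Gaussian process model; HC: hill climbing; Gen: genetic algorithm; Gibbs: Gibbs sampling; a sequence that several methods proposed may carry one label only). Affinity was read by AlphaSeq, a pooled yeast mating assay with surface-displayed partners. Binding brings cells together so that they mate, and sequencing counts the barcode pairs among the diploids. Read counts were normalised to the haploid input and turned into Kd by a linear fit to BCL2-family pairs of known affinity, for each replicate. Mating was done six times.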

The parent's light chain CDRs are KSSQSVLYESRNKNSVA, WASTRES, QQYHRLPLS; each variant's own CDRs replace them letter for letter.
The read-out is the apparent dissociation constant on a log10 scale (nM): the lower, the stronger.
The mean shown is taken over the replicates in which the pair was detected.
An entry "nd" has no value in the source: the pair was not observed among the diploids in any replicate. This suggests poor binding but is not conclusive.
The authors averaged sequences with at least three values out of six and counted those with two or fewer as poor binders.
Empty control strains, which show no peptide, gave a signal in 4% of pairings with all light chain designs; the median was 2.64 and 95% of these signals were weaker than 1.59. No background was subtracted. For each scFv, signals with the empty controls are counted beside the result.
The parent sequence was in this pool as ten entries: three were never detected, three once, and four in most replicates, with averages from 0.34 to 2.37.
A sequence measured in both rounds can read differently, since the two assays cover different ranges.

CDR-L1,CDR-L2,CDR-L3,group,mean log10 Kd (nM),detected,empty controls
KISGYLNKESKNKNNVA,EMVNRES,QQYDRLPLS,En_HC,0.64,6/6,2/18
TIYGTLSYGMRNRSNVA,EVSERLN,QQYDRLPLI,En_Gen,2.23,6/6,1/18
HITSNMFGFGGVANNVA,ETNTLMV,QQYSKLPLM,En_Gibbs,0.71,6/6,2/18
KFMQSVLYESRNLNNVA,HGSTRES,QQYHRLPLS,GP_Gibbs,-0.27,6/6,2/18
KLSQSMLYESRNKNNVA,EASQREQ,QSYHRLPLS,GP_Gibbs,0.11,6/6,0/18
KSSQSVLYESLNKYSVA,WASTRES,QQYHRLPLS,Ctrl,1.52,5/6,0/18
KLPQSVLYEQRNSNSVA,NGSTRFS,QQYHRLPLS,GP_Gibbs,-0.11,6/6,0/18
KASQSFLYESRNFNSVA,GASTRES,QQYHRLPLS,GP_HC,0.22,6/6,1/18
KITGMWTFEQHNRNNIA,EESTRED,QSYHRLPLS,En_HC,0.89,6/6,0/18
KLSQSDLYESRNKNNVA,NASLREQ,QDYHRLPLS,GP_Gibbs,-0.10,6/6,0/18
TIGQTLMSGVMNRSNVA,EVSQRLN,QQYDRLPLL,En_Gen,0.64,6/6,1/18
KSSQIVLYESINKNSVA,WASTRES,QQYHRLPLS,Ctrl,1.19,5/6,1/18
KLEQSMLYESRNKNSVA,NASTRLS,QQYHRLPLS,GP_Gen,-0.20,6/6,0/18
KIKLSNSVSLRGTRAIA,DGSERAH,QQYHRLPLT,En_Gibbs,0.02,6/6,0/18
KVSQSKLQGQRNKNSVA,EASTRER,QQYHRLPLS,GP_Gibbs,2.83,2/6,0/18
KVSEFPRGLMSRQDSIA,DNNTREN,QQYDRLPLS,En_Gen,1.37,5/6,0/18
HISMMVGTKGYTKNSVA,NAETRED,QQYHRLPLS,En_HC,-0.28,6/6,2/18
KIMQSLNYESFNVSSVA,GQETRER,QAYHRLPLS,En_HC,2.53,3/6,0/18
KLSQSVLYESRNSNSVA,NASTRES,QQYHRLPLS,GP_Gen,-0.14,6/6,0/18
MISQLYNMGTFAINSVA,QASIRNA,QQYDRLPLT,En_Gen,nd,0/6,0/18
KMSQVYGYESTNSNSVA,DASTRED,QQYHRLPLS,GP_Gibbs,0.10,6/6,0/18
KLMTSDLYESRMKNAVA,DASTRME,QQYHRLPLS,GP_Gibbs,-0.31,6/6,2/18
KLGGMTAIESRNLNSVA,QMDTRES,QQYDRLPLS,En_HC,0.91,6/6,2/18
MISDLMLYGSRNKNPIA,NASMREY,QQYHRLPLE,En_HC,1.39,6/6,0/18
RVQINSGHSDMHWKSIA,SASLRAS,QQYARLPLE,En_Gibbs,1.53,6/6,1/18
KLSQVTHSESRNKNSIA,EMVTRES,QQYDRLPLS,En_HC,0.41,6/6,2/18
MISDMGLHDSRIQNSVA,NNSTREA,QQYDRLPLA,En_HC,2.50,2/6,1/18
HSSESVLYESRNKNNVA,NASTRES,QQYHRLPLS,GP_HC,0.14,6/6,1/18
KLSESAHFESRKKNSIA,ENSTRES,QQYYHLPLS,En_HC,0.47,6/6,1/18
KSSQSYHWEDRNKNSVA,LASTRES,QQYHRLPLF,Ctrl,1.05,1/6,0/18
KLMQSTGYESRNKDSIA,DNSTRGR,QQYHRLPLS,En_HC,2.97,6/6,1/18
KLYQSEWYESRMKNNVA,NASVRES,QQYHRLPLS,GP_Gibbs,0.27,6/6,0/18
KISMSTTFESRNKNSVA,ENSTRES,QFYHRLPLS,En_HC,nd,0/6,0/18
ILYESVGTLSRNKNSVA,DNSTREE,QQYDRLPLS,En_HC,1.55,3/6,0/18
KFSQSVLYESNNKNSVA,WASTREM,QQYHRLPLS,Ctrl,0.94,6/6,0/18
IVSQMMLWGMHLKNSIA,EAQTRIN,QQYDRLPLF,En_Gen,2.92,2/6,1/18
ALSQSMDMTSRNKNSVA,DLTVREN,QQYHRLPLS,En_HC,0.48,6/6,1/18
KVSGSVLLWSRTANAVA,EASTRES,QQYHRLPLS,GP_Gibbs,1.09,6/6,2/18
TISMHTSLFSQTINNVA,EVSMREP,QQYDRLPLM,En_Gen,0.73,6/6,1/18
QIQFFIENDAEWGDSIA,EVSATTA,QQYHRLPLA,En_Gibbs,nd,0/6,0/18
KMSQSVDLESRNDNAVA,MASTRMM,QQYHRLPLS,GP_Gibbs,-0.08,6/6,0/18
KKSQSVLYESRNGNSVA,WASTRES,QQYHRLPLS,Ctrl,nd,0/6,1/18
KVSQSVLYESRNKNSVA,WASTRES,QQGHRLPLS,Ctrl,2.39,1/6,1/18
TIANSMLYLSNLKNSIA,QAETRED,QQYHRLPIS,En_HC,0.60,6/6,0/18
KVMQEMEYESRMANSVA,NASQRES,QQYHRLPLS,GP_Gibbs,0.57,6/6,0/18
KVDQEWDYGSRNKNSVA,NASTRER,QQYHRLPLS,GP_Gibbs,1.69,5/6,0/18
KSENTVLKESRNLNSVA,SESTRES,QQYHRLPLS,Ctrl,0.58,6/6,1/18
KSSISYEEESRNKNSVA,EASTRES,QQYHRLPLS,GP_HC,0.20,6/6,1/18
KSSGSVLYESHNKNSVA,NASTRMS,QQYHRLPLS,GP_HC,0.36,6/6,1/18
HISMSVGMTSFHKNSVA,ENSTREN,QQYDRLPLS,En_HC,2.52,6/6,3/18
KIGGTLNTLMHQKNNVA,DLVTREN,QQYHRLPLS,En_Gen,-0.08,6/6,0/18
TISQMLLMQTSHKNSVA,GEETRYN,QQYHRLPLS,En_HC,0.21,6/6,1/18
KLSPSVLGMSRNKNSVA,NASTRES,QQYHRLPLS,GP_Gibbs,0.28,6/6,1/18
KMETYSQDNRLTISAIA,EASTIYQ,QQYGRLPLS,En_Gibbs,0.23,6/6,0/18
HSSQSELYESRNKNSVA,NASTRES,QQYHRLPLS,GP_HC,0.44,6/6,0/18
KLMMFMQGIGCMKNNIA,NLSEVAT,QQYAQLPLV,En_Gibbs,3.07,2/6,0/18
KMEQSDWLESRNVNSVA,QASTRES,QQYHRLPLS,GP_Gibbs,-0.13,6/6,0/18
KTEFSWLYESRNKNSVA,NASERES,QQYHRLPLS,GP_Gibbs,-0.01,6/6,0/18
KSSQSLLYEGRNKNSVA,RASTRES,QQYGRLPLS,Ctrl,2.54,4/6,1/18
MISDLTMYGSRNKNSVA,DLSTRGS,QQYYRLPLS,En_HC,-0.01,6/6,0/18
KLTMMYQHTSRNKNNIA,ERSTREE,QQYHNLPLS,En_HC,-0.18,6/6,0/18
KLRWDDMPHEETRKNVA,DATMRVH,QQYNRLPLD,En_Gibbs,0.69,6/6,2/18
KLQQSQEYESRNKNSVA,HASTRES,QQYHRLPLS,GP_HC,1.25,6/6,0/18
KSSQSVEEESRNKNSVA,SASTRES,QQYHRLPLF,Ctrl,0.52,6/6,0/18
TISYSAQMTGLNRNSVA,QAEERLE,QQYHRLPLS,En_HC,0.74,6/6,1/18
KSSISVLQESRNQNSVA,EASTREV,QQYHRLPLS,GP_Gibbs,1.74,6/6,1/18
KLSQSDEYESRNKNSVA,EASTRES,QQYHRLPLS,GP_Gen,-0.45,6/6,2/18
KLQPSMLYESRNDNSVA,DASMRES,QQYHRLPLF,GP_Gibbs,0.03,6/6,0/18
KSEQSSPYESRNKNSVA,NASLRCS,QQYHRLPLS,GP_Gibbs,0.10,6/6,0/18
HSSPSWYYDSRNKNHVA,DATTRES,QQYHRLPLT,En_Gibbs,0.45,6/6,1/18
KLSLGLGVQKQVYYNIA,NESLKTA,QHYDRLPLT,En_Gibbs,nd,0/6,0/18
RSSQSVLYFSRTKNSVA,QASTRES,EQYHRLPLS,Ctrl,1.04,2/6,0/18
KFQQSELYESRNKNSVA,EASQRES,QQYHRLPLS,GP_Gen,-0.17,6/6,2/18
KIQQSVLYESLNKNSVA,EASTRLS,QQYHRLPLS,GP_Gibbs,0.65,6/6,1/18
MSSQSVLKEARNLNSVA,QASTRES,QQYHRLPLC,Ctrl,1.47,6/6,1/18
KSSLSVLYESRNKNSVA,WASTRES,QQYHMLPLS,Ctrl,2.17,2/6,0/18

A selection of 5 entries from above:

CDR-L1,CDR-L2,CDR-L3,group,mean log10 Kd (nM),detected,empty controls
KISGYLNKESKNKNNVA,EMVNRES,QQYDRLPLS,En_HC,0.64,6/6,2/18
HSSPSWYYDSRNKNHVA,DATTRES,QQYHRLPLT,En_Gibbs,0.45,6/6,1/18
KTEFSWLYESRNKNSVA,NASERES,QQYHRLPLS,GP_Gibbs,-0.01,6/6,0/18
TISQMLLMQTSHKNSVA,GEETRYN,QQYHRLPLS,En_HC,0.21,6/6,1/18
KSSQIVLYESINKNSVA,WASTRES,QQYHRLPLS,Ctrl,1.19,5/6,1/18